These results are taken from ChEMBL document CHEMBL3638487, “Inhibitors of beta-secretase” (2014).

As usually defined, the IC50 is the concentration that inhibits the measured activity by half. Read a low IC50 as greater potency.

In the test the target is Beta-secretase 1 (Homo sapiens, UniProt P56817). As to the kind of experiment: BACE Assay: For each compound being tested, the BACE activity was monitored in a fluorescence quenching assay (FRET) using the ectodomain of BACE (aa 1-454) fused to a myc-his tag and secreted from HEK293/BACEect. cells into OptiMEM (Invitrogen) as enzyme source and a substrate peptide derived from the APP-Swedish mutation which possesses a Cy3-fluorophore at the N-terminus and a Cy5Q-quencher at.

In turn, `CO[C@H]1CC[C@]2(CC1)Cc1ccc(Br)cc1[C@@]21N=C(N)N(C)C1=O` came in with an IC50 of 4510 nM.

The molecule `CO[C@H]1CC[C@]2(CC1)Cc1ccc(Br)cc1[C@]21N=C(N)N(C)C1=O` showed an IC50 of 15.9 nM.
